Test results taken from patent publication US20070060610A1, “Methods and pharmaceutical formulations for increasing bioavailability” (priority 2005, published 2007).

Test system: Caco-2 monolayers
Details: FIG. 1A; 45 minute preincubation; 120 minute time point; Rhodamine 123 13 μM; TPGS 1000 33 μM on both apical and basolateral sides

d-α-tocopheryl polyethylene glycol succinate [TPGS 1000]
increase in Papp (absorptive transport, Ap→Bl) of Rhodamine 123 compared to that achieved without TPGS 1000 pre-exposure: greater than two-fold
